Laboratory results from BindingDB's records for PubMed 39708769 (Nanjing University of Chinese Medicine).

The chains behind the UniProt entries cited, without tags or fusion partners.
UniProt Q07817, whole entry: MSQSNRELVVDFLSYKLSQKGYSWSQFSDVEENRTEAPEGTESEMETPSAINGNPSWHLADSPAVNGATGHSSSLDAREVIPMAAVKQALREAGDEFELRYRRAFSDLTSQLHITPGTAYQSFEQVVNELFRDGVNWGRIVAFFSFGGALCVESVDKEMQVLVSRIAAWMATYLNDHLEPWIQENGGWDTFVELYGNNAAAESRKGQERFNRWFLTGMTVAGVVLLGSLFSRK

Biological target: Bcl-2-like protein 1 (Homo sapiens, UniProt Q07817)

Cc1cc2c(C(=O)NC[C@@H](C)c3ccccc3)c(O)c(O)cc2c(O)c1-c1c(C)cc2c(C(=O)NC[C@H](C)c3ccccc3)c(O)c(O)cc2c1O
IC50: 310 nM
